Measurements published in PubChem BioAssay AID1347056 (Sanford-Burnham Center for Chemical Genomics, 2019).
The list shows a part of the results, in another mix than the full data. Active and inactive are the calls of the source.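 The calls were made as follows: active = compounds whose plate-normalised and pattern-corrected inhibition of the luciferase reporter signal at the single screening dose is 50% or more; inactive = the rest.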

experiment: inhibitors of TROY-driven NF-kB signaling, primary screen, Q293 LMP1-TROYcd cells, NF-kB luciferase, uHTS (AID 1347056); conditions: Q293 LMP1-TROYcd NF-kB luciferase reporter, 4 h; at 10 µM; active compounds read high

| SMILES | inhibition |
| --- | --- |
| O=c1[nH]c2ccccc2n1C1CCN(C(c2cccs2)c2nnnn2C2CCCCC2)CC1 (stereo not drawn) | inactive: 36.4% |
| COc1ccc(C(=O)NCC2(N3CCOCC3)CCCCC2)cc1OC | inactive: 9.53% |
| O=c1[nH]c2ccccc2n1C1CCN(C(c2ccnc3ccccc23)c2nnnn2C2CCCC2)CC1 (stereo not drawn) | inactive: 13.2% |
| CCCCn1nnnc1C(c1ccccc1)N1CCC(n2c(=O)[nH]c3ccccc32)CC1 (stereo not drawn) | inactive: 22.5% |
| COc1cc(C(=O)NCC2(N3CCOCC3)CCCCC2)cc(OC)c1C | inactive: -13.2% |
| O=C(NCC1(N2CCOCC2)CCCCC1)c1cc(Br)ccc1Cl | inactive: 7.13% |
| O=C(OC1CN2CCC1CC2)C1c2ccccc2C=Cc2ccccc21 (stereo not drawn) | inactive: 1.31% |
| O=c1[nH]c2ccccc2n1C1CCN(C(c2cccs2)c2nnnn2C2CCCC2)CC1 (stereo not drawn) | inactive: 7.69% |
| CCCCn1nnnc1C(c1cccc(OC)c1OC)N1CCC(n2c(=O)[nH]c3ccccc32)CC1 (stereo not drawn) | inactive: 15.7% |
| COc1cccc(C(c2nnnn2C(C)(C)C)N2CCC(n3c(=O)[nH]c4ccccc43)CC2)c1OC (stereo not drawn) | inactive: 12.6% |
| CCOC(=O)N1CCC(Nc2ccc(C)cc2)CC1 | inactive: 5.24% |
| N/C(=N\O)c1c(N)no[n+]1[O-] | inactive: 8.68% |
| N#Cc1ccc(C(=O)NCC2(N3CCCCC3)CCCCC2)cc1 | inactive: -33.8% |
| CC(C)(C)OC(=O)N1CCC(N(C(=O)c2ccccc2)c2ccc(Cl)cc2)CC1 | inactive: -0.46% |
| CC(C)(C)n1nnnc1C(c1cccc2ccccc12)N1CCC(n2c(=O)[nH]c3ccccc32)CC1 (stereo not drawn) | inactive: 49.4% |
| CN(C)C1(CNC(=O)c2cccc(C#N)c2)CCCCC1 | inactive: 0.29% |
| c1ccc(CN2CCC(Nc3ccccc3)CC2)cc1 | inactive: -9.98% |
| O=c1[nH]c2ccccc2n1C1CCN(C(c2ccccc2)c2nnnn2C2CCCC2)CC1 (stereo not drawn) | inactive: 4.43% |
| CCCN1CCC(Nc2cc(OC)cc(OC)c2)CC1 | inactive: 4.34% |
| Cc1cc(N(CCCl)CCCl)ccc1C=O | inactive: 9.36% |
| Cc1ccc(C(=O)NCC2(N3CCCCC3)CCCCC2)o1 | inactive: -16.9% |
| Fc1ccccc1NC1CCN(Cc2ccccc2)CC1 | inactive: 0.87% |

| SMILES | inhibition |
| --- | --- |
| Cc1ccc(NC2(C#N)CCN(Cc3ccccc3)CC2)cc1 | inactive: -9.13% |
| CC(=O)N(c1ccccc1)C1CCNCC1 | inactive: 2.78% |
| COc1cccc(C(c2nnnn2C2CCCCC2)N2CCC(n3c(=O)[nH]c4ccccc43)CC2)c1OC (stereo not drawn) | inactive: 30.7% |
| CCC(c1nnnn1C1CCCCC1)N1CCC(n2c(=O)[nH]c3ccccc32)CC1 (stereo not drawn) | inactive: 8.59% |
| O=c1[nH]c2ccccc2n1C1CCN(C(c2ccnc3ccccc23)c2nnnn2C2CCCCC2)CC1 (stereo not drawn) | inactive: 13.6% |
| COc1cc(OC)cc(C(=O)NCC2(N3CCCCC3)CCCCC2)c1 | inactive: 5.8% |
| O=C(NCC1(N2CCCCC2)CCCCC1)c1ccco1 | inactive: -2.29% |
| Cn1c(=O)[nH]cc(N(CCCl)CCCl)c1=O | inactive: -12.8% |
| CN(C)c1ccc(C(=O)NCC2(N3CCCCC3)CCCCC2)cc1 | inactive: -16.8% |
| Cc1ccccc1NC1(C#N)CCN(Cc2ccccc2)CC1 | inactive: -3.84% |
| CC(C)(C)n1nnnc1C(c1ccnc2ccccc12)N1CCC(n2c(=O)[nH]c3ccccc32)CC1 (stereo not drawn) | inactive: -7.72% |
| COc1ccc(C(c2nnnn2C2CCCCC2)N2CCC(n3c(=O)[nH]c4ccccc43)CC2)cc1 (stereo not drawn) | inactive: 32.9% |
| CCN1CCC(Nc2cccc(F)c2)CC1 | inactive: -6.8% |
| CC(C)(C)OC(=O)N1CCC(Nc2ccccc2)CC1 | inactive: 0.43% |
| NN(c1ccccc1)C1CCN(CCc2ccccc2)CC1 | inactive: -20.1% |
| O=C(O)C1(Nc2ccccc2)CCN(Cc2ccccc2)CC1 | inactive: -28.6% |
| CCCOc1ccc(C(=O)NCC2(N(C)C)CCCCC2)cc1 | inactive: -19.9% |
| O=c1[nH]c2ccccc2n1C1CCN(C(c2cc3ccccc3o2)c2nnnn2C2CCCC2)CC1 (stereo not drawn) | inactive: 24.5% |
| CCOc1ncccc1C(=O)NCC1(N2CCOCC2)CCCCC1 | inactive: -15.8% |
| CN1CCC(Nc2ccc(F)c(Cl)c2)CC1 | inactive: 3.8% |
| CN1CCC(Nc2ccc(Cl)cc2)CC1 | inactive: 11.8% |
| COc1cccc(C(=O)N(c2cc(C)cc(C)c2)C2CCN(C(=O)OC(C)(C)C)CC2)c1 | inactive: 2.2% |

| SMILES | inhibition |
| --- | --- |
| COc1cccc(C(c2nnnn2C2CCCC2)N2CCC(n3c(=O)[nH]c4ccccc43)CC2)c1OC (stereo not drawn) | inactive: 4.99% |
| COc1cc(OC)cc(C(=O)NCC2(N3CCOCC3)CCCCC2)c1 | inactive: 21.8% |
| CCC(CO)(C(=O)OC1CN2CCC1CC2)c1ccccc1 (stereo not drawn) | inactive: -6.91% |
| CSc1ccccc1C(=O)NCC1(N2CCCCC2)CCCCC1 | inactive: -8.06% |
| Cc1cccc(NC2(C#N)CCN(Cc3ccccc3)CC2)c1 | inactive: 5.29% |
| COc1ccc(C(=O)NCC2(N3CCCCC3)CCCCC2)cc1 | inactive: 0.66% |
| CCC(c1nnnn1C1CCCC1)N1CCC(n2c(=O)[nH]c3ccccc32)CC1 (stereo not drawn) | inactive: -7.28% |
| COc1ccc(C(=O)NCC2(N3CCCCC3)CCCCC2)c(OC)c1OC | inactive: 9.83% |
| CC(C)(C)OC(=O)N1CCC(N(C(=O)c2ccccc2)c2ccc(F)cc2)CC1 | inactive: -0.97% |
| O=C(NCC1(N2CCCCC2)CCCCC1)c1ccc(=O)[nH]c1 | inactive: -13.5% |
| CCCCn1nnnc1C(c1cccs1)N1CCC(n2c(=O)[nH]c3ccccc32)CC1 (stereo not drawn) | inactive: 12% |
| CCCCn1nnnc1C(CC)N1CCC(n2c(=O)[nH]c3ccccc32)CC1 (stereo not drawn) | inactive: 7.63% |
| O=C(NCC1(N2CCCCC2)CCCCC1)c1cccs1 | inactive: 6.85% |
| O=c1[nH]c2ccccc2n1C1CCN(C(c2cc3ccccc3o2)c2nnnn2C2CCCCC2)CC1 (stereo not drawn) | inactive: 47.7% |
| O=C(OC1CN2CCC1CC2)C1c2ccccc2Oc2ccccc21 (stereo not drawn) | inactive: 13.8% |
| N#CC1(Nc2ccccc2)CCN(Cc2ccccc2)CC1 | inactive: -15.7% |
| O=C(NCC1(N2CCCCC2)CCCCC1)c1ccc(Cl)s1 | inactive: -27.9% |
| COc1ccc(Cl)cc1C(=O)NCC1(N2CCOCC2)CCCCC1 | inactive: -5.82% |
| CCOC(=O)N1CCC(Nc2ccc(OC)cc2)CC1 | inactive: 0.43% |
| CCCCn1nnnc1C(c1ccc(OC)cc1)N1CCC(n2c(=O)[nH]c3ccccc32)CC1 (stereo not drawn) | inactive: 19% |
| O=c1[nH]c2ccccc2n1C1CCN(C(c2ccccc2OC(F)(F)F)c2nnnn2C2CCCCC2)CC1 (stereo not drawn) | inactive: 16.6% |
| O=C(NCC1(N2CCCCC2)CCCCC1)c1ccc(Cl)nc1 | inactive: -0.6% |

| SMILES | inhibition |
| --- | --- |
| Cc1cc(C)cc(N(C(=O)c2ccccc2)C2CCN(C(=O)OC(C)(C)C)CC2)c1 | inactive: 6.33% |
| O=C(NCC1(N2CCOCC2)CCCCC1)c1cc2ccccc2o1 | inactive: 11.9% |
| O=C(NCC1(N2CCCCC2)CCCCC1)c1ccc(F)cc1 | inactive: 1.71% |
| CCCCOc1ccc(C(=O)NCC2(N3CCOCC3)CCCCC2)cc1 | inactive: -39.3% |
| O=P1(N(CCCl)CCCl)SCCCS1 | inactive: 18.3% |
| CCCCn1nnnc1C(c1cc2ccccc2o1)N1CCC(n2c(=O)[nH]c3ccccc32)CC1 (stereo not drawn) | inactive: 29.2% |
| CCOC(=O)N1CCC(Nc2ccc(F)cc2)CC1 | inactive: 11.5% |
| COc1ccc(NC2CCN(CCc3ccccc3)CC2)c(OC)c1 | inactive: -17.5% |
| CC(C)(C)n1nnnc1C(c1ccccc1)N1CCC(n2c(=O)[nH]c3ccccc32)CC1 (stereo not drawn) | inactive: -3.82% |
| O=C1CCN(Cc2ccccc2)CC1 | inactive: 1.67% |
| CCOc1ccc(C)cc1CN(CCCl)CCCl | inactive: 0.99% |
| COc1cc(C(=O)NCC2(N(C)C)CCCCC2)ccc1OC(F)F | inactive: 8.12% |
| CCOC(=O)N1CCC(Nc2cccc(C)c2)CC1 | inactive: 13.6% |
| O=c1[nH]c2ccccc2n1C1CCN(C(c2cccc3ccccc23)c2nnnn2C2CCCC2)CC1 (stereo not drawn) | inactive: -7% |
| O=c1[nH]c2ccccc2n1C1CCN(C(c2ccccc2)c2nnnn2C2CCCCC2)CC1 (stereo not drawn) | inactive: 19.2% |
| CCN1CCC(Nc2ccc(Cl)cc2)CC1 | inactive: 2.05% |
| N#CC1(Nc2ccccc2)CCN(CCc2ccccc2)CC1 | inactive: -14.5% |
| O=c1[nH]c2ccccc2n1C1CCN(C(c2ccccc2OC(F)(F)F)c2nnnn2C2CCCC2)CC1 (stereo not drawn) | inactive: -10.4% |
| CSc1ccc(C(=O)NCC2(N3CCOCC3)CCCCC2)cc1 | inactive: -2.52% |
| O=C(NCC1(N2CCCCC2)CCCCC1)c1cccc([N+](=O)[O-])c1 | inactive: 14.5% |
| CC(C)(C)n1nnnc1C(c1ccccc1OC(F)(F)F)N1CCC(n2c(=O)[nH]c3ccccc32)CC1 (stereo not drawn) | inactive: 10.5% |
| O=C(NCC1(N2CCCCC2)CCCCC1)c1ccc(OC(F)F)cc1 | inactive: 20.6% |

| SMILES | inhibition |
| --- | --- |
| O=C(NCC1(N2CCOCC2)CCCCC1)c1cc(=O)[nH]c2ccccc12 | inactive: -2.15% |
| COc1cc(C(=O)NCC2(N3CCCCC3)CCCCC2)ccc1OC(F)F | inactive: -8.52% |
| CCCCn1nnnc1C(c1cccc2ccccc12)N1CCC(n2c(=O)[nH]c3ccccc32)CC1 (stereo not drawn) | inactive: 18.1% |
| COc1ccc(NC2CCN(C(=O)OC(C)(C)C)CC2)cc1 | inactive: 1.26% |
| CC(C)c1ccc(C(=O)NCC2(N3CCOCC3)CCCCC2)cc1 | inactive: -6.68% |
| CN1CCN(CCOC(=O)C(O)(c2ccccc2)c2ccccc2)CC1 | inactive: 7.8% |
| O=C(NCC1(N2CCCCC2)CCCCC1)c1cccc(C(F)(F)F)c1 | inactive: 11.2% |
| COc1cc(OC)c(C(=O)NCC2(N(C)C)CCCCC2)cc1OC | inactive: 8.79% |
| O=C(NCC1(N2CCOCC2)CCCCC1)c1cc(F)c(F)cc1Cl | inactive: -2.53% |
| CCC(c1nnnn1C(C)(C)C)N1CCC(n2c(=O)[nH]c3ccccc32)CC1 (stereo not drawn) | inactive: -8.58% |
| CCCCn1nnnc1C(c1ccnc2ccccc12)N1CCC(n2c(=O)[nH]c3ccccc32)CC1 (stereo not drawn) | inactive: 17.3% |
| CC(C)c1ccc(NC2CCN(C(=O)OC(C)(C)C)CC2)cc1 | inactive: 5.92% |
| CCCCn1nnnc1C(c1ccccc1OC(F)(F)F)N1CCC(n2c(=O)[nH]c3ccccc32)CC1 (stereo not drawn) | inactive: 26.1% |
| COc1ccc(CN(CCCl)CCCl)cc1Cl | inactive: -17.6% |
| CN(C)c1cccc(C(=O)NCC2(N3CCCCC3)CCCCC2)c1 | inactive: -6.51% |
| COc1ccc(C(c2nnnn2C2CCCC2)N2CCC(n3c(=O)[nH]c4ccccc43)CC2)cc1 (stereo not drawn) | inactive: -1.91% |
| Cc1ccc(C(=O)NCC2(N(C)C)CCCCC2)o1 | inactive: -5.72% |
| CCCOc1ccc(C(=O)NCC2(N(C)C)CCCCC2)cc1OC | inactive: -3.32% |
| O=C(NCC1(N2CCCCC2)CCCCC1)c1cncc(Br)c1 | inactive: 11.6% |
| CN1CCC(Nc2cccc(F)c2)CC1 | inactive: -0.78% |
